Inhibition data for one compound are collected here from PubChem BioAssay AID602318 (Sanford-Burnham Center for Chemical Genomics, 2012).

Sequences of proteins named here, by UniProt entry; tags and fusion partners are left off.
UniProt O00487, whole entry: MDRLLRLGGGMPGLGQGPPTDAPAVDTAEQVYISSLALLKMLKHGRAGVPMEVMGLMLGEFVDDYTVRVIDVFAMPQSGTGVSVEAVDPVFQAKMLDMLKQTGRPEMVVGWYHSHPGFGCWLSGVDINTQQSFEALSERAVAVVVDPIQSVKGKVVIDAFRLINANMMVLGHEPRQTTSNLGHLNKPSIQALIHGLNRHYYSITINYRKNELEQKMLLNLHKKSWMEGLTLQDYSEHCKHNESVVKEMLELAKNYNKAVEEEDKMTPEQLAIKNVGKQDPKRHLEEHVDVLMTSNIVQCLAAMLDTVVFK

This is a selection; strong and weak results do not stand in their true shares. Activity calls are given as the source filed them. Rule as the data show it: active = inhibition above about 40%; inactive = the rest.

The experiment has as its target 26S proteasome non-ATPase regulatory subunit 14 (Homo sapiens) (UniProt O00487). The experiment in a line: Rpn11 (PSMD14) deubiquitinase inhibitors, confirmation, biochemical, fluorescence polarization, single concentration (AID 602318). The note with it: purified human 26S proteasome, Ub4-pepOG fluorescence polarization; at 20 µM; active compounds read high; proteasome pretreated with epoxomicin. For orientation: Fluorescence polarisation rises when a labelled molecule tumbles more slowly, as on binding a larger partner.
The inhibition is the relative decrease from the control value, in per cent. With `CCCCCCCCCCCCCCCC1C[N+](C)(C)CCOP(C)(=O)O1` (stereo unspecified), the inhibition is inactive: 39.7%.
